# Measurements as given in US12358970B2, “Methods of exogenous drug activation of chemical-induced signaling complexes expressed in engineered cells in vitro and in vivo” (Seattle Children's Hospital, priority 2016, dated 2025).
# Tests used:
# [1] = test system: STAT5 phosphorylation in IL2R-CISC expressing T cells; assay: phospho-STAT5 signaling after 20 days of culture; type: cell-based, human; settings: mock, GFP and IL2R-CISC cell types
# [2] = test system: IL2R-CISC expressing primary human T-cells; assay: Selective enrichment of IL2R-CISC expressing T cells, flow cytometry of cis-linked GFP/mCherry marker; type: cell-based; settings: IL2R-CISC V3 experiment; mock IL-2 treatments over 15 days
# Method: Each architecture of IL2R-CISC (i.e. 1210, 1211, and 1233) was cis-linked together with GFP using 2A sequences, and placed under the control of an MND promoter in a lentiviral expression cassette (as schematized in FIG. 5, bottom). Lentiviral particles from each IL2R-CISC architecture were generated and used to transduce primary human T-cells. Following transduction, the cells were grown for 2 days in IL2, and then divided in half, with half grown in IL2 alone and half in rapamycin alone, as indicated.
# Lentiviral particles from each IL2R-CISC architecture were generated and used to transduce primary human T-cells. CD4+ T cells were activated for 60 hours. The cells were then plated in a 24-well dish by plating 1 million cells per well in 1 mL medium with IL2/7/15. Lentivirus was transduced with or without beads, using 15 μL of IL2R-CISC and 3 μL of MND-GFP control with protamine sulfate at 4 μg/mL (0.5 mL medium) in a 24-well dish. […] The GFP signal was determined and the IL2R-CISC level of transduced T cells was determined. […]
# Following transduction, the cells were grown for 2 days in IL2, and then divided in half, with half grown in IL2 alone and half in rapamycin alone, as indicated. […] The T cell viability was determined and the expression of GFP+ population and IL2R-CISC expression was determined by using anti-FRB antibody and a secondary APC antibody. […]
# [3] = test system: CD25 expression on IL2R-CISC V3 T-cells; assay: FACS T-cell marker analysis of CISC V3 expanded cells; type: cell-based; settings: IL2R-CISC V3 T-cells expanded 15 days in the indicated agent
# Method: Peripheral blood T-cells were activated using anti-CD3/CD28 beads transduced with IL2R-CISC V3 lentivirus, expanded in IL-2 or the indicated IL2R-CISC ligand for 15 days. […] In contrast, cells expanded through their IL2R-CISC receptors have high CD25 expression, as low media IL-2 promotes minimal turnover of native IL2R.
# The IL2-CISC induced signaling pathways were analyzed to determine whether the magnitude of the signaling pathway is sufficient to produce clinically relevant activity. A T-Cell marker analysis for CISC V3 expanded cells was performed, as shown in the flow cell data of FIG. 20.
substance,measurement,setting,value
IL-2: interleukin 2 cytokine used as comparison culture condition,Phosphorylation of STAT5 in response to treatment,[1],respond robustly to IL-2 treatment
same,Change in mCherry positive cells,[2],gradual reduction in mCherry positive cells
same,CD25 expression,[3],generally low expression of CD25
